Experiments:
Experiment in all cases: Kinase inhibitor library screening, PrestoBlue cell viability, 1 or 10 μM, 72 h
[1] = tested on: A375-GP cells (Dabrafenib-resistant); conditions: for cell viability, A375 GP, 1μΜ: in %
[2] = tested on: IGR37-GP cells (Dabrafenib-resistant)
[3] = tested on: 501Mel-GP cells (Dabrafenib-resistant); conditions: 1μΜ
A375 cells (parental) = tested on: A375 cells (parental)
[4] = tested on: IGR37-XP cells (Vemurafenib-resistant); conditions: for cell viability (kinase inhibitor library screening): 1μΜ
IGR37 cells (parental) = tested on: IGR37 cells (parental)
[5] = tested on: 501Mel-XP cells (Vemurafenib-resistant); conditions: 1μΜ
[6] = tested on: A375-XP cells (Vemurafenib-resistant)
501Mel cells (parental) = conditions: for cell viability (kinase inhibitor library screening): 501Mel Parental

## CN(C[C@@H]1COCCO1)S(=O)(=O)Nc1ccc2ccc3ncc(-c4cnn(C)c4)cc3c(=O)c2c1 [MK-2461]
[1]; 1μΜ
  cell viability (kinase inhibitor library screening): 101.3%
[2]; 1μΜ
  cell viability (kinase inhibitor library screening): 102.4%

## CC(C)CC(=O)Nc1[nH]nc2c1CN(C(=O)C1CCN(C)CC1)C2(C)C [PHA-793887, reference compound]
[3]
  cell viability (kinase inhibitor library screening): 102.0%

## CCCCCCCCCCCCc1ccc(S(=O)(=O)Nc2nncs2)cc1 [PHT-427]
A375 cells (parental); 1μΜ
  cell viability (kinase inhibitor library screening): 102.3%
[4]
  cell viability (kinase inhibitor library screening): 101.3%
IGR37 cells (parental); 1μΜ
  cell viability (kinase inhibitor library screening): 102.0%
[5]
  cell viability (kinase inhibitor library screening): 98.7%

## CCOc1ccn(-c2ccc(F)cc2)c(=O)c1C(=O)Nc1ccc(Oc2ccnc(N)c2Cl)c(F)c1 [BMS 777607]
[3]
  cell viability (kinase inhibitor library screening): 81.3%
[6]; 1μΜ
  cell viability (kinase inhibitor library screening): 102.5%
[1]; 1μΜ
  cell viability (kinase inhibitor library screening): 100.8%

## Cc1cc(Nc2cc(N3CCN(C)CC3)nc(Sc3ccc(NC(=O)C4CC4)cc3)n2)n[nH]1 [VX-680 (MK-0457, Tozasertib)]
[4]
  cell viability (kinase inhibitor library screening): 97.5%

## Cc1[nH]c(/C=C2\C(=O)Nc3ccc(S(=O)(=O)Cc4c(Cl)cccc4Cl)cc32)c(C)c1C(=O)N1CCC[C@@H]1CN1CCCC1 [PHA-665752]
[4]
  cell viability (kinase inhibitor library screening): 101.4%

## Cc1csc(-c2nnc(Nc3ccc(Oc4ncccc4-c4ccnc(N)n4)cc3)c3ccccc23)c1 [AMG 900]
[2]; 1μΜ
  cell viability (kinase inhibitor library screening): 100.6%

## COc1cc(N2CCC(N3CCN(C)CC3)CC2)ccc1Nc1ncc(Cl)c(Nc2ccccc2S(=O)(=O)C(C)C)n1 [TAE684 (NVP-TAE684)]
[5]
  cell viability (kinase inhibitor library screening): 101.8%

## AZD4547
[1]; 1μΜ
  cell viability, A375 GP, 1μΜ: 97.7

## S=C(NCc1ccc2c(c1)OCO2)N1CCN(c2ncnc3c2oc2ccccc23)CC1 [Amuvatinib (MP-470)]
[4]
  cell viability (kinase inhibitor library screening): 97.5%

## OCCn1cc(-c2cnc3nnn(Cc4ccc5ncccc5c4)c3n2)cn1 [PF-04217903]
A375 cells (parental); 10μΜ
  cell viability (kinase inhibitor library screening): 102.0%
[1]; 1μΜ
  cell viability (kinase inhibitor library screening): 101.6%
[1]; 10μΜ
  cell viability (kinase inhibitor library screening): 101.9%
[4]
  cell viability (kinase inhibitor library screening): 100.8%

## CC(C)c1cnn2c(NCc3ccccc3)cc(NCCCCCCN)nc12.Cl [BS-181 HCl]
A375 cells (parental); 1μΜ
  cell viability (kinase inhibitor library screening): 101.1%
IGR37 cells (parental); 10μΜ
  cell viability (kinase inhibitor library screening): 101.3%

## O=C(O)[C@]1(Cc2cccc(Nc3nccs3)n2)CC[C@@H](Oc2cccc(Cl)c2F)CC1 [MK-5108 (VX-689)]
[2]; 1μΜ
  cell viability (kinase inhibitor library screening): 102.5%

## Cc1ccc(NC(=O)c2ccc(CN3CCN(C)CC3)cc2)cc1Nc1nc(-c2cccnc2)cs1 [Masitinib (AB1010)]
A375 cells (parental); 1μΜ
  cell viability (kinase inhibitor library screening): 102.3%
[2]; 1μΜ
  cell viability (kinase inhibitor library screening): 98.7%
501Mel cells (parental); 1μΜ
  cell viability (kinase inhibitor library screening): 101.8%

## Nc1nc(Nc2ccc(S(N)(=O)=O)cc2)nn1C(=O)c1c(F)cccc1F [JNJ-7706621]
501Mel cells (parental); 1μΜ
  cell viability (kinase inhibitor library screening): 102.2%

## COc1ccc2c(Oc3ccc(NC(=O)c4c(C)n(CC(C)(C)O)n(-c5ccccc5)c4=O)nc3)ccnc2c1 [AMG458]
IGR37 cells (parental); 10μΜ
  cell viability (kinase inhibitor library screening): 102.4%
501Mel cells (parental); 1μΜ
  cell viability (kinase inhibitor library screening): 101.3%
501Mel cells (parental); 10μΜ
  cell viability (kinase inhibitor library screening): 101.3%
[5]
  cell viability (kinase inhibitor library screening): 101.0%

## CNC(=O)c1ccc(-c2cnc3ncc(Cc4ccc5ncccc5c4)n3n2)cc1F [INCB28060]
A375 cells (parental); 10μΜ
  cell viability (kinase inhibitor library screening): 102.1%

## MK-2206 dihydrochloride
A375 cells (parental); 1μΜ
  cell viability (kinase inhibitor library screening): 101.2%
IGR37 cells (parental); 1μΜ
  cell viability (kinase inhibitor library screening): 103.1%

## C[C@@H]1CN(CC(=O)Nc2ccc3c(c2)Cc2cccc(-c4cc(=O)cc(N5CCOCC5)o4)c2S3)C[C@H](C)O1 [KU-60019]
[6]; 1μΜ
  cell viability (kinase inhibitor library screening): 102.4%
A375 cells (parental); 1μΜ
  cell viability (kinase inhibitor library screening): 100.6%
[4]
  cell viability (kinase inhibitor library screening): 102.5%
[2]; 10μΜ
  cell viability (kinase inhibitor library screening): 72.5%
IGR37 cells (parental); 1μΜ
  cell viability (kinase inhibitor library screening): 98.7%

## CS(=O)(=O)CCNCc1ccc(-c2ccc3ncnc(Nc4ccc(OCc5cccc(F)c5)c(Cl)c4)c3c2)o1.Cc1ccc(S(=O)(=O)O)cc1.Cc1ccc(S(=O)(=O)O)cc1 [Lapatinib Ditosylate (Tykerb)]
[1]; 1μΜ
  cell viability, A375 GP, 1μΜ: 108.6
[4]; in %
  cell viability, IGR37 XP, 1μΜ: 94.9
[2]; 1μΜ, in %
  cell viability, IGR37 GP, 1μΜ: 100.0
IGR37 cells (parental); 1μΜ, in %
  cell viability, IGR37 Parental, 1μΜ: 99.4
501Mel cells (parental); 1μΜ, in %
  cell viability, 501Mel Parental, 1μΜ: 103.1

## CC(C)NC[C@@H](C(=O)N1CCN(c2ncnc3c2[C@H](C)C[C@H]3O)CC1)c1ccc(Cl)cc1 [GDC-0068]
[6]; 1μΜ
  cell viability (kinase inhibitor library screening): 100.9%
[1]; 1μΜ
  cell viability (kinase inhibitor library screening): 100.6%

## Nc1nccc(Oc2ccc(NC(=O)c3c[nH]cc(-c4ccc(F)cc4)c3=O)cc2F)c1Cl [BMS 794833]
A375 cells (parental); 1μΜ
  cell viability (kinase inhibitor library screening): 102.1%
[1]; 1μΜ
  cell viability (kinase inhibitor library screening): 101.3%

## CCn1c(-c2nonc2N)nc2c(C#CC(C)(C)O)ncc(OC[C@H]3CCCNC3)c21 [GSK690693]
A375 cells (parental); 1μΜ
  cell viability (kinase inhibitor library screening): 101.2%

## Cn1cc(-c2ccc3nnc(Sc4ccc5ncccc5c4)n3n2)cn1 [SGX-523]
[6]; 1μΜ
  cell viability (kinase inhibitor library screening): 101.5%
[6]; 10μΜ
  cell viability (kinase inhibitor library screening): 102.2%

## COCCNCc1ccc(-c2cc3nccc(Oc4ccc(NC(=S)NC(=O)Cc5ccc(F)cc5)cc4F)c3s2)nc1 [MGCD-265]
A375 cells (parental); 1μΜ
  cell viability (kinase inhibitor library screening): 102.5%

## O=c1cc(-c2cccc3c2Sc2ccccc2S3)oc(N2CCOCC2)c1 [KU-55933]
501Mel cells (parental); 1μΜ
  cell viability (kinase inhibitor library screening): 101.2%

## Cc1cnc(NC(=O)Nc2cc(Br)c(C)cc2OC[C@@H]2CNCCO2)cn1 [LY2603618 (IC-83)]
[1]; 1μΜ
  cell viability (kinase inhibitor library screening): 72.5%

## N#Cc1c(O)c2c(-c3ccc(-c4ccccc4O)cc3)csc2[nH]c1=O [A-769662]
[3]
  cell viability (kinase inhibitor library screening): 102.4%
[6]; 10μΜ
  cell viability (kinase inhibitor library screening): 101.5%
[1]; 1μΜ
  cell viability (kinase inhibitor library screening): 101.2%
[2]; 1μΜ
  cell viability (kinase inhibitor library screening): 101.3%

## CN(C)c1ccc(-c2nc3ncc(Cl)c(N4CCN(CC(=O)Nc5nccs5)CC4)c3[nH]2)cc1 [CCT129202]
A375 cells (parental); 1μΜ
  cell viability (kinase inhibitor library screening): 102.2%

## CCn1cc(-c2ccnc3[nH]c(-c4cccc(CN(C)C)c4)cc23)c(-c2ccc(NC(=O)N(C)C)cc2)n1 [GSK1070916]
[3]
  cell viability (kinase inhibitor library screening): 100.7%

## CC(=O)c1c(C)c2cnc(Nc3ccc(N4CCNCC4)cn3)nc2n(C2CCCC2)c1=O.Cl [PD 0332991 (Palbociclib) HCl]
[2]; 1μΜ
  cell viability (kinase inhibitor library screening): 102.5%
IGR37 cells (parental); 10μΜ
  cell viability (kinase inhibitor library screening): 72.5%

## Cn1cc(-c2ccc3nnc(C(F)(F)c4ccc5ncccc5c4)n3n2)cn1 [JNJ-38877605]
[1]; 1μΜ
  cell viability (kinase inhibitor library screening): 100.6%

## CNC(=O)c1cc(Oc2ccc(NC(=O)Nc3cc(C(C)(C)C)nn3-c3ccc4ncccc4c3)c(F)c2)ccn1 [DCC-2036 (Rebastinib)]
[2]; 1μΜ
  cell viability (kinase inhibitor library screening): 101.4%

## CCc1cc2c(cc1N1CCC(N3CCOCC3)CC1)C(C)(C)c1[nH]c3cc(C#N)ccc3c1C2=O [CH5424802]
[1]; 1μΜ
  cell viability (kinase inhibitor library screening): 101.0%

## Cc1cc(CN2CCN(c3c(Br)cnc4nc(-c5ccc(N6CCN(C)CC6)cc5)[nH]c34)CC2)no1 [CCT137690]
[6]; 1μΜ
  cell viability (kinase inhibitor library screening): 62.3%

Reference: article PMC6364417, “Kinase inhibitor library screening identifies synergistic drug combinations effective in sensitive and resistant melanoma cells” (Journal of Experimental & Clinical Cancer Research : CR, 2019)
